Data on two substances can be found in patent publication US12274745B2, “Conjugate of CAPRIN-1 antibody linked to immune activator for cancer treatment” (TORAY INDUSTRIES, INC., priority 2016, dated 2025).

The test system of experiment [1] is Human lung cancer cells H1650. Briefly: In vivo antitumor effect, H1650-bearing Balb/c nude mice (Example 7). The following applies: 10 mg/kg tail vein once a week, three times, 25 days after the start of the administration. The protocol: Specifically, the conjugates of the present invention were examined for their antitumor effect using Balb/c nude mice in which human-derived cancer cells expressing CAPRIN-1 were transplanted. Human lung cancer cells H1650 were subcutaneously transplanted to the ventral regions of the mice, which were then grown until tumor became 180 mm^3 or larger to prepare cancer-bearing mice. The lung cancer cells H1650 express the CAPRIN-1 protein on the cell membrane surface. As shown in Example 5, Conjugates 1 to 28 specifically bind to CAPRIN-1 on the cell membrane surface of the lung cancer cells H1650. Conjugates 1 to 14 prepared in Example 3 and Conjugates 15 to 28 prepared in Example 4 were each administered at 10 mg/kg to the tail veins of 10 cancer-bearing mice.
A solution containing a conjugate of cetuximab and resiquimod was prepared by the method described in Example 3 and administered as a comparative control in the same amount as above to the cancer-bearing mice. The administration was carried out once a week a total of three times.
(§1) PBS(−) was administered to the cancer-bearing mice, for a negative control.
(§2) The tumor sizes of the cancer-bearing mice after the administration were measured using calipers over time, and tumor volumes were calculated according to an ordinary method based on the expression: (Length of the major axis of tumor)×(Length of the minor axis of tumor)^2×0.5. […]

In experiment [2] the test system is Human breast cancer cells BT-474. Briefly: Flow cytometry, reactivity with cell membrane surface of CAPRIN-1-expressing cancer cells (BT-474). It counts as cell-based. The note with it: BT474 cells. As to the method:
Next, the reactivity with the cell membrane surface of CAPRIN-1-expressing cancer cells was verified by flow cytometry. Human breast cancer cells BT-474 (from ATCC) or mouse breast cancer cells 4T1 (from ATCC) were centrifuged in 1.5 mL microcentrifuge tubes (2×10^5 cells per tube). 100 μL of the solutions containing each of Conjugates 1 to 6, Conjugates 15 to 20, Control conjugate 1, and Control conjugate 2 was then each added to separate tubes. The tube was left to stand on ice for 1 hour. After washing with PBS, Alexa 488-labeled anti-rabbit IgG (H+L) diluted 100-fold with PBS(−) containing 0.5% FBS (0.5% FBS-PBS(−)) was added thereto, and the tube was left to stand on ice for 1 hour. After washing with 0.5% FBS-PBS(−), the cells were suspended in 0.2 μg/mL propidium iodide and 0.5% FBS-PBS(−), and the fluorescence intensity was measured using FACSVerse™ (Becton, Dickinson and Company).

For experiment [3], the system named is Human breast cancer cells BT474. The experiment in a line: In vivo antitumor effect, BT474-bearing NOD-SCID mice (Example 6). The note with it: 10 mg/kg tail vein once a week, 50 days after the start of the administration. The protocol: Specifically, the conjugates of the present invention were examined for their antitumor effect using NOD-SCID mice in which human-derived cancer cells expressing the CAPRIN-1 protein were transplanted. Human breast cancer cells BT474 were mixed with Matrigel (Sigma-Aldrich Corp.) and subcutaneously transplanted at 10^7 cells/mouse to the mice, which were then grown until tumor became 180 mm^3 or larger to prepare cancer-bearing mice. BT474 expresses the CAPRIN-1 protein on the cell membrane surface. As shown in Example 5, Conjugates 1 to 6 and Conjugates 15 to 20 prepared using anti-CAPRIN-1 polyclonal antibodies #1 to #6, and Conjugates 7 to 14 and Conjugates 21 to 28 prepared using anti-CAPRIN-1 monoclonal antibodies specifically bind to the cell membrane surface. Conjugates 1 to 28 were each administered at 10 mg/kg to the tail veins of 10 cancer-bearing mice.
The administration to the cancer-bearing mice was carried out once a week.
as §1, §2

“conjugate of cetuximab and resiquimod: conjugate of cetuximab and resiquimod prepared by the method described in Example 3, comparative control”: in experiment [1], the “tumor volume relative to the tumor volume of the negative control (100%)” value came to 32%.

In the case of “conjugate of trastuzumab and resiquimod: conjugate of trastuzumab and resiquimod prepared by the method described in Example 3, comparative control”, the “fluorescence intensity (reactivity with the cell surface)” value in experiment [2] is reported as “specifically binds to BT474”. Also, the “tumor volume relative to the tumor volume of the negative control (100%)” value in experiment [3] stood at 54%.
